Literature values as cited in patent publication US7741435B2, “Substance P-saporin (SP-SAP) conjugates and methods of use thereof” (Advanced Targeting Systems, Inc., priority 1997, dated 2010).

The chains behind the UniProt entries cited, without tags or fusion partners.
UniProt P14600, whole entry: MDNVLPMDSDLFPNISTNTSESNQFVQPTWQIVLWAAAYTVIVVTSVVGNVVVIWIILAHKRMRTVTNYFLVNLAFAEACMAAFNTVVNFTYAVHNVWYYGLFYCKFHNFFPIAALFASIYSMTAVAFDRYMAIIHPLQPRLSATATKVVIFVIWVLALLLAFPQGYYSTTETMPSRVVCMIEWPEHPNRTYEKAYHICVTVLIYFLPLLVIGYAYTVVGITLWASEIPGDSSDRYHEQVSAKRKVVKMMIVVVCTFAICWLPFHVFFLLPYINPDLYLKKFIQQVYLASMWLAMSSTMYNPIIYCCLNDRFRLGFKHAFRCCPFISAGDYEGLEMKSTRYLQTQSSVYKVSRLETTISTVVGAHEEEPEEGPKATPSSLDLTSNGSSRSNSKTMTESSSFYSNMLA

Target: rat NK-1R (Rattus norvegicus, UniProt P14600)
Conditions: read-out: Kd of SP binding; KNRK cells transfected with rat NK-1R, approximately 80,000 receptors; cited from earlier work

For RPKPQQFFGLM [SP, RPKPQQFFGLM-amide], the Kd is given as 6 nM.
